This is an account of results in US7687538B2 (priority 2004, dated 2010).

Amino acid sequences for entries named in this document (tags omitted). A change or cut given only in a name is not applied to a line headed by its entry.
UniProt P41145: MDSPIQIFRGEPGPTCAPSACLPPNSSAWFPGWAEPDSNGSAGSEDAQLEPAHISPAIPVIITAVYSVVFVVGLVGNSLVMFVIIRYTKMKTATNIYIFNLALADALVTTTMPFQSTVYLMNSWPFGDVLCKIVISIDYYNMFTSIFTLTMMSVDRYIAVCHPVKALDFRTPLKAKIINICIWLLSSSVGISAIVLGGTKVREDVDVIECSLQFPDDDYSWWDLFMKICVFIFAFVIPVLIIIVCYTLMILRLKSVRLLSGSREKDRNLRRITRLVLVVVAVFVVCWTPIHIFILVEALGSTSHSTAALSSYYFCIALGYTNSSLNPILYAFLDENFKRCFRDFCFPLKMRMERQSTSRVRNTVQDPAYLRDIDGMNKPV

The test deals with κ-opioid receptor (KOR) (Homo sapiens, UniProt P41145). Put plainly: biochemical. Type of test: binding.

Each structure is given as a SMILES string.

Consider `COC(=O)[C@@H]1C[C@H](O)C(=O)[C@H]2[C@@]1(C)CC[C@H]1C(=O)O[C@H](c3ccoc3)C[C@]21C` [Salvinorin B], for which the Ki was greater than 10 µM.
